Columns and labels:
human A1AR = human A1AR (Homo sapiens, UniProt P30542); assay: A1AR radioligand competition binding, [3H]DPCPX, CHO cell membranes; details: at 1 μM
Text: (§1) was evaluate in vitro using radioligand binding assays following a previously described protocol (J. Med. Chem. 2019, 62, 9315-9330). Human ARs were expressed in transfected cell lines [e.g. chinese hamster ovary (CHO) cells (A1AR), human epithelial carcinoma (HeLa) cells (A2AAR and A3AR) and human embryonic kidney (HEK-293) cells (A2BAR)]. [^3H]DPCPX for A1AR and A2BAR, [^3H]NECA for A3AR, and [^3H]ZM241385 for A2AAR were employed as radioligands. […] Using Prism 5.0 software (GraphPad, San Diego, Calif.) K; values were acquired by fitting the data by non-linear regression. Results are the average of three experiments, each of them performed in duplicate. […] Non-specific binding was determined in the presence of 10 μM R-PIA. […] Non-specific binding was determined in the presence of 50 μM NECA. […] Non-specific binding was determined in the presence of 400 μM NECA. […] Non-specific binding was determined in the presence of 100 μM R-PIA. […] After the incubation time, membranes were washed and filtered, radioactivity was detected in a Microbeta Trilux reader (PerkinElmer).
(§2) The adenosinergic (affinity and selectivity) profile of several compounds of the invention was evaluated according to the above examples.

The chains behind the UniProt entries cited, without tags or fusion partners.
UniProt P30542, whole entry: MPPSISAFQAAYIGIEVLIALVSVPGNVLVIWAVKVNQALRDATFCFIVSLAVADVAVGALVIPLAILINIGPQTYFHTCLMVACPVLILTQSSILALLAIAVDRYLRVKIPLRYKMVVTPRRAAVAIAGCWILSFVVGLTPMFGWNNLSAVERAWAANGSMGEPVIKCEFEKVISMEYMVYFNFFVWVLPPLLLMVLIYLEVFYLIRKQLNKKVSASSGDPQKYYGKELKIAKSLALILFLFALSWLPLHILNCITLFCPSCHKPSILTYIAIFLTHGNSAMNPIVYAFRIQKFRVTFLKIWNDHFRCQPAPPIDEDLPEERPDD
UniProt P29275, whole entry: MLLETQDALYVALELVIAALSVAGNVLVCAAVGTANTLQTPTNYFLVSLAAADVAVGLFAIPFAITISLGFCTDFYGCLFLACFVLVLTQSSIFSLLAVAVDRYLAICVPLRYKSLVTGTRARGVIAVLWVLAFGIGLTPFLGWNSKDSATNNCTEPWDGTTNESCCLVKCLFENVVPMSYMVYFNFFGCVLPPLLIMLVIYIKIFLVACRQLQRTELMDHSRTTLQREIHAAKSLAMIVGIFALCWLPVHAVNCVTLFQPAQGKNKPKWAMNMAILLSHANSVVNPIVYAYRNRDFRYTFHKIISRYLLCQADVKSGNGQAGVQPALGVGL
UniProt P0DMS8, whole entry: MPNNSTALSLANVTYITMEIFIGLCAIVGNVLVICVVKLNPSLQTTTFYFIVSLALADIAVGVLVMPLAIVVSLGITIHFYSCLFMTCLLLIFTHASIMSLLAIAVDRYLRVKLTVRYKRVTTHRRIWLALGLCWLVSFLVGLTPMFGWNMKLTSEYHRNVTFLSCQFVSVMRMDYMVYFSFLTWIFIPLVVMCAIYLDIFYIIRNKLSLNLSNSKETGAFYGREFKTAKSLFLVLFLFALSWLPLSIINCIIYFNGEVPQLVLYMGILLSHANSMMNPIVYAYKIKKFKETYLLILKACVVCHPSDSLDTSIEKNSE

human A2AAR = human A2AAR (Homo sapiens, UniProt P29274); assay: A2AAR radioligand competition binding, [3H]ZM241385, HeLa cell membranes; details: at 1 μM
Text: as §1, §2

human A2BAR = human A2BAR (Homo sapiens, UniProt P29275); assay: A2BAR radioligand competition binding, [3H]DPCPX, HEK-293 cell membranes; details: read-out: A2B Ki; 25 nM [3H]DPCPX, 25° C. 30 min
Text: as §1, §2

human A3AR = human A3AR (Homo sapiens, UniProt P0DMS8); assay: A3AR radioligand competition binding, [3H]NECA, HeLa cell membranes; details: at 1 μM
Text: as §1, §2

In the case of `[C-]#[N+]CCCOCCOCCOCCCNC(=O)C(C)(C)N1CCN(C(=O)CNC(=O)COc2ccc(-c3cc4c([nH]3)c(=O)n(CCC)c(=O)n4C)cc2)CC1`, the “A1 specific binding inhibition percentage” value (human A1AR) is reported as 61%, the “A2A specific binding inhibition percentage” value (human A2AAR) is reported as 13% and the Ki (human A2BAR) is reported as 0.18 µM. For the same compound, the “A3 specific binding inhibition percentage” value (human A3AR) was 57%.

Reference: patent publication US20230271983A1, “FUNCTIONALIZED ISONITRILES AND PRODUCTS, PREPARATION AND USES THEREOF” (UNIVERSIDADE DE SANTIAGO DE COMPOSTELA, priority 2020, published 2023)
